In PubChem BioAssay AID1461 (National Center for Advancing Translational Sciences (NCATS), 2008):
Only a part is listed here, and it is no random draw. Inconclusive results are not listed. Some salts or complexes appear as unconnected parts, following the source record. The source made the active and inactive calls. Calls follow the shape of the dose curve; as a rule, active = well fitted inhibition curve with a large enough effect; inconclusive = small, poorly fitted or top-dose-only effect, or effect the other way; inactive = no such curve, though single readings can be large or run the other way.

Sequences of proteins named here, by UniProt entry; tags and fusion partners are left off.
UniProt Q6W5P4, whole entry: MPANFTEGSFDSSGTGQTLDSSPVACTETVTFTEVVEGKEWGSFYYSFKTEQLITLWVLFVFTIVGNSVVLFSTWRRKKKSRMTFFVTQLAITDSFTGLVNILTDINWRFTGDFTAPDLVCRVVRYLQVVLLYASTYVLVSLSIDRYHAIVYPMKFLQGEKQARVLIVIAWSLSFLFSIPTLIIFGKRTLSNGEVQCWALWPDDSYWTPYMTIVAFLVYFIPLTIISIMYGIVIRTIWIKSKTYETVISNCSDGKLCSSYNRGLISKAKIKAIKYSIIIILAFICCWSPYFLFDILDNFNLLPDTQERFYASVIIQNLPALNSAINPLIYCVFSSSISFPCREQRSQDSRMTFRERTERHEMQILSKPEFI

target: Neuropeptide S receptor (Homo sapiens) (UniProt Q6W5P4); test: qHTS Assay for Antagonists of the Neuropeptide S Receptor: cAMP Signal Transduction; details: CHO-NPSR cells, cAMP TR-FRET, antagonist mode; at 38.3 µM (top of the series) unless noted; also: nearly all actives have a fitted effect of over 50% in size
% is scaled to controls: 0 for no effect and ±100 for the full control effect.

Row | SMILES | activity change, negative = inhibition
1 | CC(C)c1ccc(NC2CCN(C(=O)OC(C)(C)C)CC2)cc1 | inactive: -25.6%
2 | COc1ccc(CN(CCCl)CCCl)cc1Cl | inactive: -12.4%
3 | CN(C)c1cccc(C(=O)NCC2(N3CCCCC3)CCCCC2)c1 | inactive: 4.77%
4 | O=C(OC1CN2CCC1CC2)c1ccc([N+](=O)[O-])cc1 (centres undefined) | inactive: -11.9%
5 | COc1ccc2c(c1O)-c1c(O)c(OC)cc3c1[C@H](C2)[N+](C)(C)CC3.O=[N+]([O-])c1cc([N+](=O)[O-])c([O-])c([N+](=O)[O-])c1[O-] | inactive: 9.28%
6 | N#CC1(Nc2ccccc2)CCN(CCc2ccccc2)CC1 | inactive: 9.47% [at 46.1 µM]
7 | O=C(NCC1(N2CCCCC2)CCCCC1)c1cccc([N+](=O)[O-])c1 | inactive: 3.45%
8 | O=C(NCC1(N2CCOCC2)CCCCC1)c1cc(=O)[nH]c2ccccc12 | inactive: -9.02% [at 46.1 µM]
9 | CN1CCN(CCOC(=O)C(O)(c2ccccc2)c2ccccc2)CC1 | inactive: 8.74%
10 | COc1ccc(NC2CCN(C(=O)OC(C)(C)C)CC2)cc1 | inactive: -7.51%
11 | O=[N+]([O-])c1cc([N+](=O)[O-])c(NCC2CCS(=O)(=O)C2)c([N+](=O)[O-])c1 (centres undefined) | inactive: -7.67%
12 | COc1ccc(NC2CCN(CCc3ccccc3)CC2)c(OC)c1 | inactive: -15.6% [at 46.1 µM]
13 | CCOc1ccc(C)cc1CN(CCCl)CCCl | inactive: -34.8%
14 | Cc1ccc(OCC(C)C)c(CN(CCCl)CCCl)c1 | inactive: 19.5%
15 | COc1ccc(C(=O)NCC2(N3CCCCC3)CCCCC2)c(OC)c1OC | inactive: 9.06%
16 | O=C(OC1CN2CCC1CC2)C1c2ccccc2Oc2ccccc21 (centres undefined) | inactive: 13.1% [at 46.1 µM]
17 | N#CC1(Nc2ccccc2)CCN(Cc2ccccc2)CC1 | inactive: -21.6%

Row | SMILES | activity change, negative = inhibition
18 | CCOC(=O)N1CCC(Nc2ccc(OC)cc2)CC1 | inactive: 11.8%
19 | O=C(NCC1(N2CCOCC2)CCCCC1)c1cc2ccccc2o1 | inactive: -8.09% [at 46.1 µM]
20 | CC(C)(C)OC(=O)N1CCC(Nc2ccccc2)CC1 | inactive: -6.54%
21 | CCOc1ncccc1C(=O)NCC1(N2CCOCC2)CCCCC1 | inactive: -19.5% [at 46.1 µM]
22 | CCCOc1ccc(C)cc1CN(CCCl)CCCl | inactive: -0.381%
23 | COc1cc(OC)cc(C(=O)NCC2(N3CCOCC3)CCCCC2)c1 | inactive: -9.52%
24 | CCC(CO)(C(=O)OC1CN2CCC1CC2)c1ccccc1 (centres undefined) | inactive: -4.62% [at 46.1 µM]
25 | Fc1ccccc1NC1CCN(Cc2ccccc2)CC1 | inactive: -11.9% [at 46.1 µM]
26 | CN(C)c1ccc(C(=O)NCC2(N3CCCCC3)CCCCC2)cc1 | inactive: 14.3%
27 | CCN1CCC(Nc2cccc(F)c2)CC1 | inactive: 10.8%
28 | CCOC(=O)C(CC)C1=NC(C)(C)Cc2ccccc21.O=[N+]([O-])c1cc([N+](=O)[O-])c(O)c([N+](=O)[O-])c1 (centres undefined) | inactive: 5.08%
29 | N#Cc1ccc(C(=O)NCC2(N3CCCCC3)CCCCC2)cc1 | inactive: 5.78%
30 | c1ccc(CN2CCC(Nc3ccccc3)CC2)cc1 | inactive: 1.81% [at 46.1 µM]
31 | COc1ccc(C(=O)NCC2(N3CCOCC3)CCCCC2)cc1OC | inactive: 15.5%
32 | O=C(OC1CN2CCC1CC2)C1c2ccccc2C=Cc2ccccc21 (centres undefined) | inactive: 3.9%
33 | O=C(O)c1cccc(Nc2c([N+](=O)[O-])cc([N+](=O)[O-])cc2[N+](=O)[O-])c1 | inactive: 8.64%
34 | N/C(=N\O)c1c(N)no[n+]1[O-] | inactive: -7.51% [at 46.1 µM]
